# Antibody variant affinities, Ab-14 heavy chain, assay 1

Source: Engelhart et al. 2022 (doi:10.1038/s41597-022-01779-4), MIT Lincoln Laboratory and A-Alpha Bio; data file from the FLAb repository.

Target peptide (SARS-CoV-2 spike, HR2 region): PDVDLGDISGINAS

Ab-14 is the parent antibody, in scFv form: VH, then the linker GGGGSGGGGSGGGGS, then VL. The light chain is unchanged in all variants.
VH: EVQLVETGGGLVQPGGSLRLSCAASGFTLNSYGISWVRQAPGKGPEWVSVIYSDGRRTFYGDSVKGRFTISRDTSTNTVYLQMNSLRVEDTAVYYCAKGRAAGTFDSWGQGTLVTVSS
VL: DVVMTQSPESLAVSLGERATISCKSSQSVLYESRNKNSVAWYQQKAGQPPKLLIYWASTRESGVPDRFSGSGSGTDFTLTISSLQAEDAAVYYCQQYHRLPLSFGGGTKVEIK

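Phage display of a naive human antibody library on the peptide gave the parent. The library (AAYL49) carries one to three amino acid substitutions per variant, with no insertions or deletions. The assay is AlphaSeq: two haploid yeast populations carry antibody and antigen on their surface. After mating in shaken culture at 30 °C for 16 h, diploids were selected and their barcode pairs sequenced. A regression on co-assayed BCL2-family reference pairs converts the normalised counts of each replicate to an apparent Kd. There are three technical replicates.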

Changes read parent residue, position, new residue, counted from the first residue of the VH shown. Every variant below is changed at Y52 of the VH (sequential numbering). The Kd shown is the geometric mean over detected replicates; a lower Kd is a better binder. "nd" means that the variant was in the library but no mating with the target was seen in any replicate; the authors take this as a sign of poor binding, and no number exists. Entries are sorted by rising average, undetected variants last. Parent in this assay: reference entry 4.4 nM, copy in this library 13 µM (one replicate of three). As a blank, each scFv also met three strains without target: over library AAYL49, 15% of these pairings were detected, typically at 11 µM and seldom below 680 nM.

Variant T28Q/L29S/Y52V showed 83 nM (1 of 3 replicates). Variant Y52N/D62P/T104M showed 340 nM (1 of 3 replicates). Variant Y52N/S53A/G61T gave 380 nM (3 of 3 replicates). Variant Y52F/A101V/A102K showed 700 nM (1 of 3 replicates). Variant Y32V/Y52S/G103F showed 1.0 µM (1 of 3 replicates). With S35V/Y52C/R100E the result was 2.7 µM (1 of 3 replicates). Variant F27M/V50M/Y52N gave 6.5 µM (1 of 3 replicates). With Y52C/R56L/S107I the result was 17 µM (2 of 3 replicates). Variant Y52M/T58R/G99W showed 19 µM (2 of 3 replicates).

For S31T/S35D/Y52S, the assay gave 34 µM (2 of 3 replicates). With V50L/Y52T/R57K the result was 35 µM (2 of 3 replicates). Variant F27T/Y52P/T58W gave 38 µM (3 of 3 replicates). Variant Y52M/K65A/F105A showed 39 µM (2 of 3 replicates). For Y52E/D62Y/R100H, the assay gave 42 µM (1 of 3 replicates). Variant S35C/Y52I/V64K showed 42 µM (2 of 3 replicates). Variant V50I/Y52S/Y60R showed 43 µM (3 of 3 replicates). For G26N/Y52S/D54G, the assay gave 60 µM (3 of 3 replicates). Variant S35M/Y52C/G61Y showed 76 µM (1 of 3 replicates).

With L29P/Y52A/T58G the result was 330 µM (2 of 3 replicates). Variant T28F/G33I/Y52S gave 640 µM (1 of 3 replicates). Variant V50R/Y52D/K65T gave 770 µM (1 of 3 replicates). Variant Y52W/G61Q/D62C showed 800 µM (1 of 3 replicates). With G26S/Y52H/F105V the result was nd (0 of 3 replicates). For T28L/I51A/Y52H, the assay gave nd (0 of 3 replicates). For Y52T/R56E/G103C, the assay gave nd (0 of 3 replicates). For Y52N/G55L/G99T, the assay gave nd (0 of 3 replicates). With Y52C/G61N/D106N the result was nd (0 of 3 replicates).

Variant Y52G/D54P/R100C gave nd (0 of 3 replicates). Variant T28R/Y52A/D62L showed nd (0 of 3 replicates). With Y52L/Y60N the result was nd (0 of 3 replicates). For Y52N/S53W/V64W, the assay gave nd (0 of 3 replicates). For F27S/Y52P, the assay gave nd (0 of 3 replicates). For T28M/Y52K, the assay gave nd (0 of 3 replicates). For Y52R/T58M/A101R, the assay gave nd (0 of 3 replicates). For Y52C/S53P/G103V, the assay gave nd (0 of 3 replicates). Variant I34S/Y52I/R56I showed nd (0 of 3 replicates).

With T28Y/Y52R/K65Q the result was nd (0 of 3 replicates). For Y52I, the assay gave nd (0 of 3 replicates). Variant I34W/Y52L gave nd (0 of 3 replicates). Variant G26F/G33C/Y52G gave nd (0 of 3 replicates). Variant Y52D/R100S/T104P gave nd (0 of 3 replicates). Variant Y52W/S53D gave nd (0 of 3 replicates).

Picked from the list: the 4 lowest averages where every replicate gave a value.

{"changes": "Y52N/S53A/G61T", "apparent Kd": "380 nM", "replicates with signal": "3/3"}
{"changes": "F27T/Y52P/T58W", "apparent Kd": "38 µM", "replicates with signal": "3/3"}
{"changes": "V50I/Y52S/Y60R", "apparent Kd": "43 µM", "replicates with signal": "3/3"}
{"changes": "G26N/Y52S/D54G", "apparent Kd": "60 µM", "replicates with signal": "3/3"}